Results from patent publication US11001613B2, “TFPI inhibitors and methods of use” (priority 2008, dated 2021).

Conditions: in vivo, iv, 10 mg/kg

Ac-FQSKGNVFVDGYFERL-Aib-AKLC(PEG(40 kD))-NH2 [JBT1855]
concentration of peptide in mouse plasma over time: present at high concentrations in mouse plasma at 100 minutes post-administration
